Data as given in US10800753B2, “Tetrahydrothiophene-based GABA aminotransferase inactivators and analogs thereof for treating neurological disorders” (Northwestern University, priority 2015, dated 2020).

Protein sequences, listed by entry. Tags and fused reporters are not part of them. Residues count along the entry.
UniProt P80147, 29-500: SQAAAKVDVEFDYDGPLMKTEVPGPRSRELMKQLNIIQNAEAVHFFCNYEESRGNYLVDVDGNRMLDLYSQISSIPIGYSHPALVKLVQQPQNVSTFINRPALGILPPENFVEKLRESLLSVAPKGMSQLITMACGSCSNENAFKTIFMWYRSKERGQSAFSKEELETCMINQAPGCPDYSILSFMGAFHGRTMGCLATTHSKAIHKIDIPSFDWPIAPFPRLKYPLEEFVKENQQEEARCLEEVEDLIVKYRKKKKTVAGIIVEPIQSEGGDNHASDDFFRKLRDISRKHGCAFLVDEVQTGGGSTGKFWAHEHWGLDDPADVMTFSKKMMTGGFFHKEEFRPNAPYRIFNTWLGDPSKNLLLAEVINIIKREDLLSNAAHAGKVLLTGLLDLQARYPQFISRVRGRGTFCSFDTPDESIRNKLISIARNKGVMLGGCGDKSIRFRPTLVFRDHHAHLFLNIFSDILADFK

Target: GABA aminotransferase (GABA-AT) (Sus scrofa (Pig), UniProt P80147)
Assay: Time-dependent inhibition (inactivation) of GABA-AT, Kitz and Wilson replot
Type: biochemical
Details: for Ki: inactivation, non-optimal conditions pH 6.5, 25° C.; for efficiency as inactivator of GABA-AT relative to vigabatrin (from kinact/KI): pH 6.5, 25° C.
Description: GABA-AT was isolated and purified from pig brain by a published procedure.

Q: With `Cl.N[C@@H]1CS[C@@H](C(=O)O)C1` [Compound 18, (2R,4S)-4-Aminotetrahydrothiophene-2-carboxylic acid hydrochloride] as the compound, how does the Ki read?
A: 2.23 mM

Q: What about the “efficiency as inactivator of GABA-AT relative to vigabatrin (from kinact/KI)” value of the same compound?
A: half as efficient as vigabatrin

Q: Which “inactivation rate constant relative to that of vigabatrin” value does the source give for `Cl.N[C@@H]1CS[C@H](C(=O)O)C1` [Compound 17, (2S,4S)-4-Aminotetrahydrothiophene-2-carboxylic acid hydrochloride] here?
A: ~20 times

Q: What about the Ki of the same compound?
A: 0.182 mM

Q: And the “efficiency as inactivator of GABA-AT relative to vigabatrin (from kinact/KI)” value?
A: eight times more efficient
